Experimental data published in PubChem BioAssay AID1159583 (ICCB-Longwood Screening Facility, Harvard Medical School, 2016).
The list shows a part of the results, in another mix than the full data. Some of these compounds have results that are not shown, active ones among them. Calls of active or inactive are those of the source. No stated cut-off is given here; in the data, active means fluorescence inhibition mostly above about 23% (no sharp cut-off); inactive means mostly below about 17%.

assay: hypoxia reporter signal reduction in M. tuberculosis – fluorescence, absorbance growth readout, primary screen (AID 1159583); settings: M. tuberculosis hypoxia-regulated fluorescent reporter, active compounds read high, concentration not given here

Row | SMILES | fluorescence inhibition
1 | O=C(NCC1(N2CCCCC2)CCCCC1)c1cccc(Cl)c1 | inactive: 3.05%
2 | COc1cccc(C(=O)NCC2(N3CCCCC3)CCCCC2)c1 | inactive: 8.44%
3 | COc1ccc(Cl)cc1C(=O)NCC1(N(C)C)CCCCC1 | inactive: 13.2%
4 | COc1cc(C(=O)NCC2(N(C)C)CCCCC2)c([N+](=O)[O-])cc1OC | inactive: 16%
5 | CN(C)C1(CNC(=O)c2ccc(Br)cc2)CCCCC1 | inactive: 13%
6 | CC(C)Oc1ccc(C(=O)NCC2(N(C)C)CCCCC2)cc1 | inactive: 16.1%
7 | O=C(OCCN1CCCC1)C(O)(c1ccccc1)c1ccccc1 | inactive: 14%
8 | COc1ccc(Br)c(C(=O)NCC2(N3CCCCC3)CCCCC2)c1 | inactive: -3.3%
9 | O=C(OC1CN2CCC1CC2)C(CO)(c1ccccc1)c1ccccc1 (configuration not stated) | inactive: 0.75%
10 | Cc1ccc(C(=O)NCC2(N3CCCCC3)CCCCC2)cc1 | inactive: -0.638%
11 | COc1cc(SC)ccc1C(=O)NCC1(N(C)C)CCCCC1 | inactive: -2.68%
12 | CN1[C@@H]2CC[C@H]1CC(OC(=O)C(O)(c1ccccc1)c1ccccc1)C2 (some centres not stated) | inactive: -4.41%
13 | O=C(NCC1(N2CCCCC2)CCCCC1)c1cc([N+](=O)[O-])ccc1Cl | inactive: -2.51%
14 | COc1ccc(C(=O)NCC2(N(C)C)CCCCC2)cc1 | inactive: -0.25%
15 | CCN1CCCC(OC(=O)C2(O)c3ccccc3C=Cc3ccccc32)C1 (configuration not stated) | inactive: 15.2%
16 | Cc1cc(C(=O)NCC2(N3CCCCC3)CCCCC2)ccc1[N+](=O)[O-] | inactive: 9.38%
17 | O=C(NCC1(N2CCCCC2)CCCCC1)c1cccc(Br)c1 | inactive: 2.15%
18 | O=C(NCC1(N2CCCCC2)CCCCC1)c1cc(F)c(F)cc1Cl | inactive: 6.04%
19 | CN(C)CCOC(=O)C(O)(c1ccccc1)C1CCCCC1 (configuration not stated) | inactive: -7.92%
20 | Cc1ccccc1C(=O)NCC1(N2CCCCC2)CCCCC1 | inactive: -7.51%
21 | CN(C)c1ccc(C(=O)NCC2(N(C)C)CCCCC2)cc1 | inactive: 15%
22 | CN(C)C1CCCC1OC(=O)C(O)(c1ccccc1)c1ccccc1 (configuration not stated) | inactive: 4.02%
